Assay results published in PMC3203607 (Nucleic Acids Research, 2011).

Protein sequences, listed by entry. Tags and fused reporters are not part of them. Residues count along the entry.
UniProt P06730, 28-217: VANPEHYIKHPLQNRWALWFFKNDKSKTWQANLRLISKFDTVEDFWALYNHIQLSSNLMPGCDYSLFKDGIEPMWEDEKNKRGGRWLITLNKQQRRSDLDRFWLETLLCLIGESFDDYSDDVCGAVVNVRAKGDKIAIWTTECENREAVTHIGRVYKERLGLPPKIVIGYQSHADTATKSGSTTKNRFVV

Biological target: Human eIF4E (28–217) (Homo sapiens, UniProt P06730)
Assay: fluorescence titration
Format: binding

Question: With `C[n+]1cn([C@@H]2O[C@H](COP(=O)(O)OP(=O)(O)OP(=O)(O)OC[C@H]3O[C@@H](n4cnc5c(=O)[nH]c(N)nc54)[C@H](O)[C@@H]3O)[C@@H](O)[C@H]2O)c2nc(N)[nH]c(=O)c21` [m^7GpppG] as the molecule, how does the Kd read?
Answer: 335 ± 36 nM
